Assay results reported in patent publication US10183913B2, “Pyrazole compound” (Sumitomo Dainippon Pharma Co., Ltd., priority 2010, dated 2019).

Sequences of proteins named here, by UniProt entry; tags and fusion partners are left off. Residues count along the entry.
UniProt P28335, 33-458 limits assumed: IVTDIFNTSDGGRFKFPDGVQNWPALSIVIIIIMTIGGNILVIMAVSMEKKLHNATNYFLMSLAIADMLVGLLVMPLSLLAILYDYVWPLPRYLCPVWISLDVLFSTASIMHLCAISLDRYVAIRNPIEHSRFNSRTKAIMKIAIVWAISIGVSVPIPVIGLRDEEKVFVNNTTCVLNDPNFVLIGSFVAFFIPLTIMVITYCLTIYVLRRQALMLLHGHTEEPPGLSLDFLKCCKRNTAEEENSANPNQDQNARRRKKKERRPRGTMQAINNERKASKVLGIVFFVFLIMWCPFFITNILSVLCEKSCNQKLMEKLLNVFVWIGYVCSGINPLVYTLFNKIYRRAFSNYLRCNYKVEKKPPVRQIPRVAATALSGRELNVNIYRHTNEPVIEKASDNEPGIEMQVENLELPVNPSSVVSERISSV

Target: human serotonin 2C receptor (h-5-HT2C) (Homo sapiens (Human), UniProt P28335)
Experiment: 5-HT2C receptor agonistic action assay (FLIPR Calcium 4 Assay kit, h-5-HT2C/CHO cells)
Type: cell-based
Conditions: test material 10 μmol/L, 100% = 10 μmol/L 5-HT, −100% = 10 μmol/L SB206553, below 0% = inverse agonistic action

| Compound | Test Ex. 3: 5-HT2C receptor agonistic action | further results |
| --- | --- | --- |
| CNC(C)c1cc(OCc2cc(F)ccc2C)n(CCC(C)C)n1 (centres unmarked) | −87% |  |
| CNCc1cc(OCc2ccccc2)n(CC2(C)CCCCC2)n1 | −103% |  |
| CNCc1cc(OCc2ccccc2C#N)n(CC2CCCC2)n1 | −66% |  |
| CCC(CC)CCn1nc(CNC)cc1OCc1cc(F)ccc1F |  | Test Ex. 3: 5-HT2C receptor agonistic action (tested form: HCl): −115% |
| CNCc1cc(NCc2ccccc2)n(CC2CCCCC2)n1 |  | Test Ex. 3: 5-HT2C receptor agonistic action (tested form: 2HCl): −120% |
